We go through one substance from PMC9504842, “Comprehensive Metabolic Profiling of Euphorbiasteroid in Rats by Integrating UPLC-Q/TOF-MS and NMR as Well as Microbial Biotransformation” (Metabolites, 2022).

The series is described as follows: Metabolite detection in rats (plasma, urine, feces) after oral euphorbiasteroid by UPLC-Q/TOF-MS. Type of series: in vivo, Sprague-Dawley rats. Conditions: single oral dose 100 mg/kg euphorbiasteroid. As to the method: For metabolite separation and detection, chromatographic analyses were performed using a Waters Acquity UPLC I-class system (Waters, Milford, MA, USA), equipped with an auto-sampler, a binary solvent delivery system, an online degasser, and a photodiode array detector. An ACQUITY UPLC® HSS T3 column (2.1 × 150 mm, 1.8 μm, Waters) protected with a HSS T3 VanGuard ™ Pre-Column 3/Pk (2.1 × 5.0 mm, 1.8 μm, Waters) was used. The optimized parameters were set as follows: the mobile phase consisted of eluent A (0.1% formic acid in water, v/v) and eluent B (acetonitrile). The flow rate was 0.3 mL/min. The column and auto-sampler temperatures were maintained at 40 °C and 4 °C, respectively. The gradient elution program was optimized as follows: 0–9 min, 30–70% B; 9–13 min, 70–90% B; 13–17 min, 90–100% B; 17–20 min, 100–100% B.
The mass spectrometry detection was performed on the SYNAPT G2-Si HDMS system, equipped with an electrospray ionization (ESI) source (Waters Corp., Manchester, UK). A positive ion mode was conducted in this analysis. Mass spectrometry conditions were finally set as follows: capillary voltage of 3.0 kV, cone voltage of 40 V, source temperature of 120 °C, and de-solvation temperature of 400 °C. Nitrogen was used as the desolvation and cone gas with a flow rate of 800 and 50 L/h, respectively, and the full-scan mass range was set as m/z 50–1500 Da. […]

As to “euphorbiasteroid 2′-O-β-D-glucopyranoside [Compound M29]”, the “Distribution Rat Faeces (metabolite detected)” value (rat faeces) is recorded as “√”. Also, the “Distribution Rat Plasma (metabolite detected)” value (rat plasma) is reported as “√”.
